Test results as given in patent US8063060B2, “R(−)-11-hydroxyaporphine derivatives and uses thereof” (The McLean Hospital Corporation, priority 2004, dated 2011).

Chains of the proteins cited; added tags and fusions are not shown. Residues count along the entry.
UniProt P61169, 1-415 isoform P61169-2: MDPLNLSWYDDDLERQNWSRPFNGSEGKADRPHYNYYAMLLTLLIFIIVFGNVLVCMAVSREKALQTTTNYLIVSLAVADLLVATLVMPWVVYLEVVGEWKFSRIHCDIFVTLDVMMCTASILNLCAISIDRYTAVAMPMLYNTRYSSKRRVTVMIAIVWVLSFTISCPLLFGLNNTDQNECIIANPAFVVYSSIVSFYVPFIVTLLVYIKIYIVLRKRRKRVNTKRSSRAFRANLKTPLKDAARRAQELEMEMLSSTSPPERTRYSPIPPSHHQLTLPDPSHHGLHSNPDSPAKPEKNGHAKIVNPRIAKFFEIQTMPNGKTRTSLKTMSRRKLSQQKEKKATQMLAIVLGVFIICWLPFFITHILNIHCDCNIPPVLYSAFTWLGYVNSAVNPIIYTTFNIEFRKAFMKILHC
UniProt P14416, whole entry: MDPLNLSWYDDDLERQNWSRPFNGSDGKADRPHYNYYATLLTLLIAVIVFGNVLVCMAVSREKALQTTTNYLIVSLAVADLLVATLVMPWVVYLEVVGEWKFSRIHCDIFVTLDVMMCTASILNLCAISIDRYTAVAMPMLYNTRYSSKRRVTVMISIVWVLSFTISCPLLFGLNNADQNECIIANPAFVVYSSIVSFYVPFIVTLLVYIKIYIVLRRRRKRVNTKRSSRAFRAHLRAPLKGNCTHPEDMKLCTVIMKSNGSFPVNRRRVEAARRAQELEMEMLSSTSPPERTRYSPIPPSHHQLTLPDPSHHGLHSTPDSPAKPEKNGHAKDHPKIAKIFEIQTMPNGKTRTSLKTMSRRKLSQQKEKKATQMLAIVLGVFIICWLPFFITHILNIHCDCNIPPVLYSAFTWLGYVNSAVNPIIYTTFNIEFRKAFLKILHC

What was measured:
dopamine D2 receptor = dopamine D2 receptor (Rattus norvegicus, UniProt P61169); test: Radioligand competition assay, D2 receptor, rat corpus striatum membranes, [3H]nemonapride; type: binding
human D2 receptor = target: T1, human D2 receptor (Homo sapiens, UniProt P14416); test: Affinity at human D2 receptor in transfected cell membranes, tritium-labeled nemonapride; type: binding
T1 construct: expressed in transfected cells

| Structure (SMILES) | Ki (dopamine D2 receptor) | Ki (human D2 receptor) |
| --- | --- | --- |
| CN1CCc2cccc3c2[C@H]1Cc1ccc(O)c(O)c1-3 [Compound 1, R(−)-apomorphine] | 0.0132 ± 0.0021 µM |  |
| CCCN1CCc2cccc3c2[C@H]1Cc1cccc(O)c1-3 [Compound 4, R(−)—N-propyl-11-hydroxynoraporphine] |  | 0.177 ± 0.017 µM |
